{"source": "paper PMC8230603", "about": "“Rad52 Oligomeric N-Terminal Domain Stabilizes Rad51 Nucleoprotein Filaments and Contributes to Their Protection against Srs2” (Cells, 2021)", "biological_target": "T1, Rad52-V95I-FLAG (expressed in yeast) (S. cerevisiae, UniProt P06778 1-471, V95I)", "T1 construct": "Rad52, S. cerevisiae, with V95I; the RAD52 gene with a C-terminal tag; amino acids are numbered from the first AUG codon in the RAD52 mRNA; Mutation isolated from a random RAD52 library; also called FLAG-tagged Rad52-V95I; source: S. cerevisiae, rad52-V95I-FLAG allele on a centromeric YCplac111 plasmid, in whole-cell extract; not shown: His-FLAG (printed as 3His-6FLAG and as 6His-3FLAG), …", "experiment": "co-IP; yeast whole-cell extract (1 mg); Rad52-FLAG precipitated with anti-FLAG antibody, eluted with 3XFLAG peptide; Rad59-MYC detected with anti-MYC", "details": "partners not purified", "data": [{"binder": "Rad59-MYC (natural protein, S. cerevisiae, UniProt Q12223 1-238, looked up, Rad59, the Rad52 paralog, S. cerevisiae; also called MYC-tagged Rad59; source: S. cerevisiae, in whole-cell extract) MTIQAKPSSSISYDSTTYGTAPGLDIKEFQIIEDWNGRPASAWSVQRIGLLQSKIERYTYNIYHNNKYGKHNLSKLIPGHALIQFANETFGYDGWRMDVIDVEARECQPFTAVNNGENTNTSEVKYTVVAEAQVKVTLKDGTNTQCGGLGRITLSSRGECYNRSKKEAVGDALKKALLSFEKIILDYETKITNNYYVDGLYGSKKIKNEANTNYNLLSATNSKPTFIKLEDAKGTHIK", "values": [{"measurement": "fold reduction of co-immunoprecipitated Rad59 against WT Rad52", "value": 2, "unit": "fold"}]}]}
